# Results reported in US7659252B2, “Transdermal delivery peptides and method of use thereof” (Novomed Technologies, Inc. (Shanghai), priority 2005, dated 2010).
# Structures can show the parent of a compound that is named as a salt.
# Tested on: male Sprague-Dawley rats
# Experiment: Transdermal apomorphine delivery, APO-induced penile erections
# Type: in vivo, rat
# Details: co-administered TD-1 fixed at 0.8 mg/kg
# Experimental: The transdermal-enhancing effect of TD-1 on APO transdermal delivery was tested in male Sprague-Dawley rats that weigh 200-250 g and were kept on a 12 hour on/off light cycle with food and water ad libitum. All behavioral studies were performed from 9:00 am to 4:00 pm at 24±1° C. While the animals were anesthetized with Urethane, the hair in an area of approximately 3.0 cm×3.0 cm in the interscapular region was carefully trimmed using scissors, with caution not to damage the skin (rats with any visible sign of skin damage were not used). Rats were allowed to recover for at least 24 hours before the experiments. One hundred ul cream containing indicated amounts of apomorphine (APO) was placed on the exposed skin and spread evenly using the side of a pipet tip. The cream formulation contains: glyceryl monostearate (7.5% by weight), hydroxypropyl methylcellulose (0.5% by weight), isopropyl myristate (10% by weight), methylparaben (0.5% by weight), propylparaben (0.5% by weight), polyxyl-40-stearat (11% by weight), saline (70% by weight), and various doses of APO and TD-1 that were coadministered.
# Immediately after administration, rats were placed into individual polystyrene cages (32 cm long, 30 cm wide, 30 cm high) for behavioral observation. […]
compound,measurement,value
"CN1CCc2cccc3c2[C@H]1Cc1ccc(O)c(O)c1-3 [APO, Apomorphine HCl, reference compound]",APO dose needed to achieve the maximum response in numbers of PEs,at least 0.8 mg/kg
same,APO dose with no significant effect in increasing numbers of PEs,≤ 0.4 mg/kg
